Values quoted from earlier work, collected in patent US6995022B1, “Screening of xenobiotics and endogenous compounds for metabolic transformation, formation of toxic metabolites, and bioavailability” (Board of Trustees of the University of Illinois, priority 1998, dated 2006).

System: cytochrome P450 isozymes
Conditions: cited from earlier work

CN(C)CCCN1c2ccccc2CCc2ccccc21 [imipramine]
metabolism according to the literature: metabolized extensively
